Results published in US20070191627A1, “Stilbene derivatives and their use in medicaments” (priority 2003, published 2007).

Amino acid sequences for entries named in this document (tags omitted). Residues count along the entry.
UniProt P23219, 24-599: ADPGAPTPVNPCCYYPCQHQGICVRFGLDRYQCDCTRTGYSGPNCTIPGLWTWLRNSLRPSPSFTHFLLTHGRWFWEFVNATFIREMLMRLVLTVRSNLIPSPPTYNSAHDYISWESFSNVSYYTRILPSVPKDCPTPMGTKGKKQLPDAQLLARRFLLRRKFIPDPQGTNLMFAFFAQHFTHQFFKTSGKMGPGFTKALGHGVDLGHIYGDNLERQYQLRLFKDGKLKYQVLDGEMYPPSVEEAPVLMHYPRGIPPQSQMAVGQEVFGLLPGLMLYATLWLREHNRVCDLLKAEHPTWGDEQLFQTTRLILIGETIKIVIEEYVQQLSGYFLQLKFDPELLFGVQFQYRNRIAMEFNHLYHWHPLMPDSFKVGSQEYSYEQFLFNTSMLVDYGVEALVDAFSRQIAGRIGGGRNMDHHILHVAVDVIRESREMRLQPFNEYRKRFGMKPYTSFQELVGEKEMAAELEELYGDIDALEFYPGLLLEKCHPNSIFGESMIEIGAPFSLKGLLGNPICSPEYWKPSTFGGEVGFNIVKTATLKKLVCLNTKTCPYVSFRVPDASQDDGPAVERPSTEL

Target: T1, COX 1 (Homo sapiens, UniProt P23219)
T1 construct: purchased IBL Products Company, Hamburg, Germany
Test: COX (human) inhibitor screening assay, COX 1
Format: biochemical
Description: COX (Human) Inhibitor Screening Assay
An immunoassay of the IBL Products Company, Hamburg, Germany was used for the determination of COX 1 and COX 2 activities. The assay quantitatively determines the prostaglandins F, E and D as well as thromboxan B of such prostaglandins, which are formed by the cyclooxygenase reaction.

Compound Oc1ccc(C=Cc2cc(O)cc(O)c2)cc1 [Resveratrol, 3,4′,5-Trihydroxystilbene, reference compound] has an IC50 of 0.5 µM.
